pIC50: −log10 of the molar value.
Target: recombinant human SYK360-635 (Spleen Tyrosine Kinase) (Homo sapiens (Human), UniProt P43405)
Experiment: SYK kinase assay (33P filtration, IC50 of SYK inhibition)
Details: read-out: ENZYME_FILTRATION_IC50, SYK 0.5 nM, ATP 20 μM

pIC50: 5.97
SMILES: Cc1nc2[nH]cc(C(=O)NC(C)(C)C)c2nc1Nc1cnn(C)c1 [Compound I-34, 3-Methyl-2-(1-methyl-1H-pyrazol-4-ylamino)-5H-pyrrolo[2,3-b]pyrazine-7-carboxylic acid tert-butylamide]
